# Source: patent publication US20090099157A1, “TETRAHYDRO-PYRAZOLO-PYRIDINE THIOETHER MODULATORS OF CATHEPSIN S” (priority 2007, published 2009)
# Sequences of proteins named here, by UniProt entry; tags and fusion partners are left off. Residues count along the entry.
# UniProt P25774, 115-331: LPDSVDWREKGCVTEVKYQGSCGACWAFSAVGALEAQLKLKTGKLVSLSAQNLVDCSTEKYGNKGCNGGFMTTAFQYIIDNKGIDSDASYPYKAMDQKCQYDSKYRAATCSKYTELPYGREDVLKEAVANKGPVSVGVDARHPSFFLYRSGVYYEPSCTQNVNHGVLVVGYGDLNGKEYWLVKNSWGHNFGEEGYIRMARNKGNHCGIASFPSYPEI
# Target: Recombinant human cathepsin S (CatS) (Homo sapiens, UniProt P25774)
# Assay: biochemical
row,Structure (SMILES),IC50
1,"CS(=O)(=O)N1CCc2c(c(-c3ccc(C(F)(F)F)c(SCCN4CCC(c5ccccc5)CC4)c3)nn2CCCN2CCC(N3CCCC3=O)CC2)C1 [Example 19, 1-{1-[3-(5-Methanesulfonyl-3-{3-[2-(4-phenyl-piperidin-1-yl)-ethylsulfanyl]-4-trifluoromethyl-phenyl}-4,5,6,7-tetrahydro-pyrazolo[4,3-c]pyridin-1-yl)-propyl]-piperidin-4-yl}-pyrrolidin-2-one]",200 nM
2,"O=C(CO)NC1CCN(CC(O)Cn2nc(-c3ccc(C(F)(F)F)c(SCCN4CCCCC4)c3)c3c2CCNC3)CC1 (stereo not shown) [Example 333, 2-Hydroxy-N-{1-[2-hydroxy-3-(3-{3-[(2-piperidin-1-ylethyl)sulfanyl]-4-(trifluoromethyl)phenyl}-4,5,6,7-tetrahydro-1H-pyrazolo[4,3-c]pyridin-1-yl)propyl]piperidin-4-yl}acetamide]",3110 nM
3,"CS(=O)(=O)N1CCc2c(c(-c3ccc(C(F)(F)F)c(SCCN4CCC(F)(F)C4)c3)nn2CC(O)CN2CCC(O)CC2)C1 (stereo not shown) [Example 514, 1-(3-{3-[3-{[2-(3,3-Difluoropyrrolidin-1-yl)ethyl]sulfanyl}-4-(trifluoromethyl)phenyl]-5-(methylsulfonyl)-4,5,6,7-tetrahydro-1H-pyrazolo[4,3-c]pyridin-1-yl}-2-hydroxypropyl)piperidin-4-ol]",230 nM
4,"CS(=O)(=O)N1CCc2c(c(-c3ccc(C(F)(F)F)c(SCCN4CCO[C@@H](CO)C4)c3)nn2C[C@@H](O)CN2CCC(N3CCCC3=O)CC2)C1 [Example 196, 1-{1-[(2S)-2-Hydroxy-3-{3-[3-({2-[(2R)-2-(hydroxymethyl)morpholin-4-yl]ethyl}sulfanyl)-4-(trifluoromethyl)phenyl]-5-(methylsulfonyl)-4,5,6,7-tetrahydro-1H-pyrazolo[4,3-c]pyridin-1-yl}propyl]piperidin-4-yl}pyrrolidin-2-one]",50 nM
5,"CS(=O)(=O)N1CCc2c(c(-c3ccc(C(F)(F)F)c(SCCN4CCOCC4)c3)nn2CC(O)CN2CCC(c3ccccn3)CC2)C1 (stereo not shown) [Example 182, 1-[5-(Methylsulfonyl)-3-{3-[(2-morpholin-4-ylethyl)sulfanyl]-4-(trifluoromethyl)phenyl}-4,5,6,7-tetrahydro-1H-pyrazolo[4,3-c]pyridin-1-yl]-3-(4-pyridin-2-ylpiperidin-1-yl)propan-2-ol]",30 nM
6,"CN(CCSc1cc(-c2nn(CCCN3CCCCC3)c3c2CN(S(C)(=O)=O)CC3)ccc1C(F)(F)F)CCc1ccccc1 [Example 489, N-Methyl-2-({5-[5-(methylsulfonyl)-1-(3-piperidin-1-ylpropyl)-4,5,6,7-tetrahydro-1H-pyrazolo[4,3-c]pyridin-3-yl]-2-(trifluoromethyl)phenyl}sulfanyl)-N-(2-phenylethyl)ethanamine]",5100 nM
7,"CS(=O)(=O)N1CCc2c(c(-c3ccc(C(F)(F)F)c(SCCN4CCC[C@H]4C(F)(F)F)c3)nn2CCCN2CCC(N3CCCC3=O)CC2)C1 [Example 20, (S)-1-{1-[3-(5-Methanesulfonyl-3-{4-trifluoromethyl-3-[2-(2-trifluoromethyl-pyrrolidin-1-yl)-ethylsulfanyl]-phenyl}-4,5,6,7-tetrahydro-pyrazolo[4,3-c]pyridin-1-yl)-propyl]-piperidin-4-yl}-pyrrolidin-2-one]",210 nM
8,"CC(C)(C)OC(=O)N1CCCC(C(=O)N2CCc3c(c(-c4ccc(C(F)(F)F)c(SCCN5CCC(F)CC5)c4)nn3CC(O)CN3CCCCC3)C2)C1 (stereo not shown) [Example 872, 1,1-Dimethylethyl 3-({3-[3-{[2-(4-fluoropiperidin-1-yl)ethyl]sulfanyl}-4-(trifluoromethyl)phenyl]-1-(2-hydroxy-3-piperidin-1-ylpropyl)-1,4,6,7-tetrahydro-5H-pyrazolo[4,3-c]pyridin-5-yl}carbonyl)piperidine-1-carboxylate]",1090 nM
9,"CC1C(=O)NCCN1CCSc1cc(-c2nn(CC(O)CN3CCC(O)(c4ccccn4)CC3)c3c2CN(S(C)(=O)=O)CC3)ccc1C(F)(F)F (stereo not shown) [Example 836, 4-(2-{[5-{1-[2-Hydroxy-3-(4-hydroxy-4-pyridin-2-ylpiperidin-1-yl)propyl]-5-(methylsulfonyl)-4,5,6,7-tetrahydro-1H-pyrazolo[4,3-c]pyridin-3-yl}-2-(trifluoromethyl)phenyl]sulfanyl}ethyl)-3-methylpiperazin-2-one]",180 nM
10,"COc1ccccc1C1CCN(CC(O)Cn2nc(-c3ccc(C(F)(F)F)c(SCC(=O)N4CCOCC4)c3)c3c2CCNC3)CC1 (stereo not shown) [Example 266, 1-{4-[2-(Methyloxy)phenyl]piperidin-1-yl}-3-(3-{3-[(2-morpholin-4-yl-2-oxoethyl)sulfanyl]-4-(trifluoromethyl)phenyl}-4,5,6,7-tetrahydro-1H-pyrazolo[4,3-c]pyridin-1-yl)propan-2-ol]",100 nM
11,"Oc1cccc(N2CCN(CC(O)Cn3nc(-c4ccc(C(F)(F)F)c(SCCN5CCC(F)(F)C5)c4)c4c3CCNC4)CC2)c1 (stereo not shown) [Example 509, 3-[4-(3-{3-[3-{[2-(3,3-Difluoropyrrolidin-1-yl)ethyl]sulfanyl}-4-(trifluoromethyl)phenyl]-4,5,6,7-tetrahydro-1H-pyrazolo[4,3-c]pyridin-1-yl}-2-hydroxypropyl)piperazin-1-yl]phenol]",660 nM
12,"CS(=O)(=O)N1CCc2c(c(-c3ccc(C(F)(F)F)c(SCCN4CCCC(F)(F)C4)c3)nn2C[C@@H](O)CN2CCC(C(N)=O)CC2)C1 [Example 668, 1-[(2S)-3-{3-[3-{[2-(3,3-Difluoropiperidin-1-yl)ethyl]sulfanyl}-4-(trifluoromethyl)phenyl]-5-(methylsulfonyl)-4,5,6,7-tetrahydro-1H-pyrazolo[4,3-c]pyridin-1-yl}-2-hydroxypropyl]piperidine-4-carboxamide]",120 nM
13,"CS(=O)(=O)N1CCc2c(c(-c3ccc(C(F)(F)F)c(SCCN4CCC(N5CCCCC5)CC4)c3)nn2CCCN2CCC(N3CCCC3=O)CC2)C1 [Example 870, 1-[1-(3-{3-[3-{[2-(1,4′-Bipiperidin-1′-yl)ethyl]sulfanyl}-4-(trifluoromethyl)phenyl]-5-(methylsulfonyl)-4,5,6,7-tetrahydro-1H-pyrazolo[4,3-c]pyridin-1-yl}propyl)piperidin-4-yl]pyrrolidin-2-one]",2010 nM
14,"CS(=O)(=O)N1CCc2c(c(-c3ccc(C(F)(F)F)c(SCCN4CCOCC4)c3)nn2CC(O)CN2CCC(NC(=O)CO)CC2)C1 (stereo not shown) [Example 657, 2-Hydroxy-N-(1-{2-hydroxy-3-[5-(methylsulfonyl)-3-{3-[(2-morpholin-4-ylethyl)sulfanyl]-4-(trifluoromethyl)phenyl}-4,5,6,7-tetrahydro-1H-pyrazolo[4,3-c]pyridin-1-yl]propyl}piperidin-4-yl)acetamide]",170 nM
15,"CS(=O)(=O)N1CCc2c(c(-c3ccc(C(F)(F)F)c(SCC(=O)N4CCOCC4)c3)nn2CC(O)CN2CCN(c3ccccc3C#N)CC2)C1 (stereo not shown) [Example 824, 2-(4-{2-Hydroxy-3-[5-(methylsulfonyl)-3-{3-[(2-morpholin-4-yl-2-oxoethyl)sulfanyl]-4-(trifluoromethyl)phenyl}-4,5,6,7-tetrahydro-1H-pyrazolo[4,3-c]pyridin-1-yl]propyl}piperazin-1-yl)benzonitrile]",10 nM
16,"CS(=O)(=O)N1CCc2c(c(-c3ccc(C(F)(F)F)c(SCCN4CCC(N5CCCC5)CC4)c3)nn2CC(O)CN2CCCC2)C1 (stereo not shown) [Example 593, 1-{5-(Methylsulfonyl)-3-[3-{[2-(4-pyrrolidin-1-ylpiperidin-1-yl)ethyl]sulfanyl}-4-(trifluoromethyl)phenyl]-4,5,6,7-tetrahydro-1H-pyrazolo[4,3-c]pyridin-1-yl}-3-pyrrolidin-1-ylpropan-2-ol]",4890 nM
17,"C[C@@H]1CN(CCSc2cc(-c3nn(CCCN4CCCCC4)c4c3CN(S(C)(=O)=O)CC4)ccc2C(F)(F)F)C[C@@H](C)O1 [Example 146, 3-[3-({2-[(2R,6R)-2,6-Dimethylmorpholin-4-yl]ethyl}sulfanyl)-4-(trifluoromethyl)phenyl]-5-(methylsulfonyl)-1-(3-piperidin-1-ylpropyl)-4,5,6,7-tetrahydro-1H-pyrazolo[4,3-c]pyridine]",420 nM
18,"O=C([C@H]1CCCO1)N1CCc2c(c(-c3ccc(C(F)(F)F)c(SCCN4CCC(F)CC4)c3)nn2CC(O)CN2CCCCC2)C1 (stereo partly drawn) [Example 520, 1-{3-[3-{[2-(4-Fluoropiperidin-1-yl)ethyl]sulfanyl}-4-(trifluoromethyl)phenyl]-5-[(2R)-tetrahydrofuran-2-ylcarbonyl]-4,5,6,7-tetrahydro-1H-pyrazolo[4,3-c]pyridin-1-yl}-3-piperidin-1-ylpropan-2-ol]",1490 nM
19,"NC(=O)C1CCN(CC(O)Cn2nc(-c3ccc(C(F)(F)F)c(SCCN4CCC(F)(F)C4)c3)c3c2CCNC3)CC1 (stereo not shown) [Example 327, 1-(3-{3-[3-{[2-(3,3-Difluoropyrrolidin-1-yl)ethyl]sulfanyl}-4-(trifluoromethyl)phenyl]-4,5,6,7-tetrahydro-1H-pyrazolo[4,3-c]pyridin-1-yl}-2-hydroxypropyl)piperidine-4-carboxamide]",2480 nM
20,"CS(=O)(=O)N1CCc2c(c(-c3ccc(C(F)(F)F)c(SCCN4CCCC4)c3)nn2CC(O)CN2CCC(c3ccccn3)CC2)C1 (stereo not shown) [Example 621, 1-[5-(Methylsulfonyl)-3-{3-[(2-pyrrolidin-1-ylethyl)sulfanyl]-4-(trifluoromethyl)phenyl}-4,5,6,7-tetrahydro-1H-pyrazolo[4,3-c]pyridin-1-yl]-3-(4-pyridin-2-ylpiperidin-1-yl)propan-2-ol]",25 nM
21,"CS(=O)(=O)N1CCc2c(c(-c3ccc(C(F)(F)F)c(SCCN4CCCCC4)c3)nn2CC(O)CN2CCC(N3CCOCC3)CC2)C1 (stereo not shown) [Example 687, 1-[5-(Methylsulfonyl)-3-{3-[(2-piperidin-1-ylethyl)sulfanyl]-4-(trifluoromethyl)phenyl}-4,5,6,7-tetrahydro-1H-pyrazolo[4,3-c]pyridin-1-yl]-3-(4-morpholin-4-ylpiperidin-1-yl)propan-2-ol]",110 nM
22,"C[C@H]1COCCN1CCSc1cc(-c2nn(C[C@@H](O)CN3CCCCC3)c3c2CN(S(C)(=O)=O)CC3)ccc1C(F)(F)F [Example 392, (2S)-1-{3-[3-({2-[(3S)-3-Methylmorpholin-4-yl]ethyl}sulfanyl)-4-(trifluoromethyl)phenyl]-5-(methylsulfonyl)-4,5,6,7-tetrahydro-1H-pyrazolo[4,3-c]pyridin-1-yl}-3-piperidin-1-ylpropan-2-ol]",570 nM
